# Results from paper PMC8378340 (ACS Chemical Neuroscience, 2021).
# Test: Analytical RP-HPLC retention time as measure of hydrophobicity
# Type: physicochemical
# Conditions: same RP-HPLC conditions; effect of Swedish mutation, increased hydrophobicity
substance,measurement,value
IKTEEISEVNL∼DAEFRHDSGYEVHHQK∼LVFFAED [APP-Y2 (7)],longer retention time (tR) compared to the mutation-free APP-Y1 peptide 5,0.6 min
